pIC50: −log10 of the molar value.
target: Full-length PRMT5 enzyme (NCBI Reference sequence NP_006100.2) co-expressed with His6-MEP50 (Homo sapiens (Human), UniProt O14744); assay: PRMT5 Biochemical Assay; conditions: histone H4 derived peptide substrate 200 nM, 1 μM S-Adenosyl methionine, 4 hours at 37° C., Transcreener EPIGEN fluorescence polarisation
Procedure: Compounds of the invention may be tested for in vitro activity in the following assay: A histone H4 derived peptide is used as substrate (amino acid sequence: […]N H2). Full-length PRMT5 enzyme (NCBI Reference sequence NP_006100.2) was co-expressed with His6-MEP50 in insect cells and purified via Nickel immobilized metal affinity and gel filtration chromatography (“the enzyme”).
The 6 μL assay reactions are run in Greiner brand black 384-well low volume plates. All reactions contained assay buffer (phosphate buffered saline, 0.01% (v/v) Tween-20, 0.01% (w/v) albumin from chicken egg white, 1 mM dithiothreitol, 200 nM peptide substrate, 1 μM S-Adenosyl methionine, and 15 ng/reaction enzyme, with the enzyme being omitted from negative control reactions. Compounds were added in a volume of 100 nL from dilution series prepared in DMSO, positive and negative control reactions receiving the same volume DMSO without compound. The plates were sealed with adhesive seals and incubated for 4 hours at 37° C. Reaction progress was measured using the Transcreener™ EPIGEN methyltransferase assay (BellBrook Labs, Madison, Wis.) as recommended by the manufacturer. To each reaction 2 μL detection mix were added, containing coupling enzymes, fluorescence polarisation tracer, and AMP antibody. Plates were incubated for 90 minutes before being read on a PerkinElmer EnVision™ plate reader in fluorescence polarisation mode.

Protein sequences, listed by entry. Tags and fused reporters are not part of them.
UniProt O14744, whole entry: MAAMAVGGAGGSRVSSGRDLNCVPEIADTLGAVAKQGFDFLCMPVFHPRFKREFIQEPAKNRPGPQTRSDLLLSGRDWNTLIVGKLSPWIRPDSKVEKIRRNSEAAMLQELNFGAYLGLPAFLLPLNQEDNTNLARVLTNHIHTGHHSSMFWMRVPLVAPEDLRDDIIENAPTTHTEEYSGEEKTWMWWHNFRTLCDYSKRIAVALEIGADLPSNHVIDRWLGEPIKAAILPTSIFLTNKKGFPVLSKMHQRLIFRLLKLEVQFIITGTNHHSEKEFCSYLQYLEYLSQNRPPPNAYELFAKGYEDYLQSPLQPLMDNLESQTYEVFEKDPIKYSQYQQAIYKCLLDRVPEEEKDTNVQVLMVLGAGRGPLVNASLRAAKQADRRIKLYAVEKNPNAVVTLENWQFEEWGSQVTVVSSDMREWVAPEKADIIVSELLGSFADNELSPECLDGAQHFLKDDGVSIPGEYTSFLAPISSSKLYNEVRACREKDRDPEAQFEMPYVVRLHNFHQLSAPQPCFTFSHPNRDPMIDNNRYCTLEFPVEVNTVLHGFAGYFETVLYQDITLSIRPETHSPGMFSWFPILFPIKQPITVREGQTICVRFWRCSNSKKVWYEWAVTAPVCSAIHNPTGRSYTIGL

| Structure (SMILES) | pIC50 |
| --- | --- |
| c1ccc(COc2ccc(-c3nc4ccc(OC5CCNCC5)nc4[nH]3)cc2)cc1 [Example 18, 2-(4-(benzyloxy)phenyl)-5-(piperidin-4-yloxy)-3H-imidazo[4,5-b]pyridine] | 6.04 |
| CCOC(=O)Cc1ccnc2[nH]c(-c3ccc(OCc4ccccc4)cc3)nc12 [Example 76, ethyl 2-(2-(4-(benzyloxy)phenyl)-3H-imidazo[4,5-b]pyridin-7-yl)acetate] | 5.68 |
| c1ccc(COc2ccc(-c3nc4cc(N5CCNCC5)cnc4[nH]3)cc2)cc1 [Example 100, 2-(4-(benzyloxy)phenyl)-6-(piperazin-1-yl)-3H-imidazo[4,5-b]pyridine] | 6.49 |
| CC1(O)CCN(c2ccc3nc(-c4ccc(OCc5ccccc5)cc4)[nH]c3n2)CC1 [Example 101, 1-(2-(4-(benzyloxy)phenyl)-3H-imidazo[4,5-b]pyridin-5-yl)-4-methylpiperidin-4-ol] | 6.65 |
| c1ccc(Cn2cc(-c3nc4cc(C5CCNCC5)cnc4[nH]3)cn2)cc1 [Example 104, 2-(1-benzyl-1H-pyrazol-4-yl)-6-(piperidin-4-yl)-3H-imidazo[4,5-b]pyridine] | 5.58 |
| c1ccc(COc2ccc(-c3nc4cc(C5CCNCC5)cnc4[nH]3)cc2)cc1 [Example 12, 2-(4-(benzyloxy)phenyl)-6-(piperidin-4-yl)-3H-imidazo[4,5-b]pyridine] | 6.91 |
| CC(C)(C)OC(=O)N1CCC(c2ccc3nc(-c4ccc(COc5ccccc5)cc4)[nH]c3n2)CC1 [Example 84, tert-butyl 4-(2-(4-(phenoxymethyl)phenyl)-3H-imidazo[4,5-b]pyridin-5-yl)piperidine-1-carboxylate] | 6.06 |
| CC(C)(C)OC(=O)N1CCCC(c2ccc3nc(-c4ccc(COc5ccccc5)cc4)[nH]c3n2)C1 (stereo not shown) [Example 34, tert-butyl 3-(2-(4-(phenoxymethyl)phenyl)-3H-imidazo[4,5-b]pyridin-5-yl)piperidine-1-carboxylate] | 5.98 |
| c1ccc(COc2ccc(-c3nc4ccc(-c5ccncc5)nc4[nH]3)cc2)cc1 [Example 37, 2-(4-(benzyloxy)phenyl)-5-(pyridin-4-yl)-3H-imidazo[4,5-b]pyridine] | 6.23 |
| c1ccc(COc2ccc(-c3nc4ncccc4[nH]3)cc2)cc1 [Example 2, 2-(4-(benzyloxy)phenyl)-1H-imidazo[4,5-b]pyridine] | 5.65 |
| c1ccc(OCc2nc(-c3nc4cc(C5CCNCC5)cnc4[nH]3)cs2)cc1 [Example 102, 2-(phenoxymethyl)-4-(6-(piperidin-4-yl)-3H-imidazo[4,5-b]pyridin-2-yl)thiazole] | 5.96 |
| Cc1cc(C2CCNCC2)cc2[nH]c(-c3ccc(OCc4ccccc4)cc3)nc12 [Example 49, 2-(4-(benzyloxy)phenyl)-4-methyl-6-(piperidin-4-yl)-1H-benzo[d]imidazole] | 5.58 |
| c1ccc(OCc2ccc(-c3nc4cc(C5CCNCC5)cnc4[nH]3)cc2)cc1 [Example 9, 2-(4-(phenoxymethyl)phenyl)-6-(piperidin-4-yl)-3H-imidazo[4,5-b]pyridine] | 6.37 |

From US9856252B2, “2-(hetero)aryl-benzimidazole and imidazopyridine derivatives as inhibitors of asparagime emethyl transferase” (Cancer Therapeutics CRC Pty Ltd, priority 2013, dated 2018)
